Patent US9255080B2, “Quinazolinedione derivatives as PARP inhibitors” (Janssen Pharmaceutica NV, priority 2004, dated 2016)
Some compounds may have been tested in ways that are not shown here.

Amino acid sequences for entries named in this document (tags omitted).
UniProt P09874, whole entry: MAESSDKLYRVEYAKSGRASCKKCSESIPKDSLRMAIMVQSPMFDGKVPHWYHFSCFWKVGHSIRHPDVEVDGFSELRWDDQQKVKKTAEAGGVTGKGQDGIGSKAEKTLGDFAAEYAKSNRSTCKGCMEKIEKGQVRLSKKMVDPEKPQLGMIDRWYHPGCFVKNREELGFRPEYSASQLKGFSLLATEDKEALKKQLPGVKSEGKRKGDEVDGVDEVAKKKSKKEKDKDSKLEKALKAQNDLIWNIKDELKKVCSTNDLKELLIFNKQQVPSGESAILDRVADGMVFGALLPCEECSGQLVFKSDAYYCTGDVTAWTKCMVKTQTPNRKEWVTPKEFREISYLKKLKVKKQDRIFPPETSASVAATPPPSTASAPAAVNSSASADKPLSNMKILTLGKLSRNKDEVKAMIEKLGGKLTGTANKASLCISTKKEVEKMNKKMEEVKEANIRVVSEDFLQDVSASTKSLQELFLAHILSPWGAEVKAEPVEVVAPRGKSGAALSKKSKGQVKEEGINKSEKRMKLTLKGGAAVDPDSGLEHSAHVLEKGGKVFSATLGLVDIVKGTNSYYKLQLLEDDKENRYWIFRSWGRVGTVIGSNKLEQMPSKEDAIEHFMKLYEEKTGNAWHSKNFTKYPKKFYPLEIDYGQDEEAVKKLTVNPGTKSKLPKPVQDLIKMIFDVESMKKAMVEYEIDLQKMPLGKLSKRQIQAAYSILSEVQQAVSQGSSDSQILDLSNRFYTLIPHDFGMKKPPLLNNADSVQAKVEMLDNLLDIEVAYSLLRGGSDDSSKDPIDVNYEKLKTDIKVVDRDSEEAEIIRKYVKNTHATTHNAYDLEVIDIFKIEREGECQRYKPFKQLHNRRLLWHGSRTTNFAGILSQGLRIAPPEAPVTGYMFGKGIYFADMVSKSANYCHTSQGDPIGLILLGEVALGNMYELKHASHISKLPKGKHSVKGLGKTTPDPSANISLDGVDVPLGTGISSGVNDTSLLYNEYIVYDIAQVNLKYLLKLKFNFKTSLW
UniProt Q9H2K2, whole entry: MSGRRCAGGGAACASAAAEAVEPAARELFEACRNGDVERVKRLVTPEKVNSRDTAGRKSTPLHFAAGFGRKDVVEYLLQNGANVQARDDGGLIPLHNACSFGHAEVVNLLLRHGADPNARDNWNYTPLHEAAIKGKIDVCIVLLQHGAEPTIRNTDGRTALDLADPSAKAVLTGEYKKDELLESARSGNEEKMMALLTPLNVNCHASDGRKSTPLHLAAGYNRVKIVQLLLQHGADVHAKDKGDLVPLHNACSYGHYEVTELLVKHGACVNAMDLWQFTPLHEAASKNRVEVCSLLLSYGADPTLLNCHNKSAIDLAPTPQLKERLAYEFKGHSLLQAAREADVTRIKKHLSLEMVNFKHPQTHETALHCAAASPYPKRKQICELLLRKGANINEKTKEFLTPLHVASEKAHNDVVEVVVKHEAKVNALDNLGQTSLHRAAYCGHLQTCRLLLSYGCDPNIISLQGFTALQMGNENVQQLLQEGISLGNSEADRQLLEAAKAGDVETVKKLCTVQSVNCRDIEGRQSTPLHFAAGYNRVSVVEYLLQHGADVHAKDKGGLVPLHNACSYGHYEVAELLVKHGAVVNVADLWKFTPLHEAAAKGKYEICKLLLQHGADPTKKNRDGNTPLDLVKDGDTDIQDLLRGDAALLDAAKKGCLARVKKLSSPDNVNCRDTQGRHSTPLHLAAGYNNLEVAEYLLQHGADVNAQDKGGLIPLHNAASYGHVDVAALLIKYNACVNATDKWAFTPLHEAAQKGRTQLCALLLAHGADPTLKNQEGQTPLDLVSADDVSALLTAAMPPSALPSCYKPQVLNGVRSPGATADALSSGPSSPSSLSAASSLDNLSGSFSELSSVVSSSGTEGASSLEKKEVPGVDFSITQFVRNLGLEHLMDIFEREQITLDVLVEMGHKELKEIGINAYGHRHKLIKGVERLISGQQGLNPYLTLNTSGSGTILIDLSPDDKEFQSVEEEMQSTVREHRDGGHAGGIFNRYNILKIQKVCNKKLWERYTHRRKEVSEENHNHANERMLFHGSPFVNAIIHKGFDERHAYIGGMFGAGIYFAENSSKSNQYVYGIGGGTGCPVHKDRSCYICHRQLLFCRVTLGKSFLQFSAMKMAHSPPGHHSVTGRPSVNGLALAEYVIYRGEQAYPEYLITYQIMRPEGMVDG

Experiments:
PARP-1 enzyme [1] = target: T1, PARP-1 enzyme (Homo sapiens, UniProt P09874); experiment: In vitro scintillation proximity assay (SPA) for PARP-1 inhibitory activity; conditions: [3H]-NAD+, biotinylated histones, nicked DNA
PARP-1 enzyme [2] = target: T1, PARP-1 enzyme; experiment: In vitro filtration assay for PARP-1 inhibitory activity; conditions: [32P]-NAD, histones, nicked DNA
TANK-2 enzyme = TANK-2 enzyme (Homo sapiens, UniProt Q9H2K2); experiment: In vitro scintillation proximity assay (SPA) for TANK-2 inhibitory activity; conditions: auto-poly(ADP-ribosyl)ation, [3H]-NAD+; 96-well results if available, otherwise 384-well
Protocol: In Vitro Scintillation Proximity Assay (SPA) for TANK-2 Inhibitory Activity
Compounds of the present invention were tested in an in vitro assay based on SPA technology with Ni Flash plates (96 or 384 well).
In principle, the assay relies upon SPA technology for the detection of auto-poly(ADP-ribosyl)ation of TANK-2 protein using [^3H]-nicotinamide adenine dinucleotide ([^3H]-NAD^+) as ADP-ribosyl donor.
A stock solution of [^3H]-NAD^+/NAD was made by adding 64.6 μl of [^3H]-NAD^+ (0.1 mCi/ml, supplier: Perkin Elmer) and 46.7 μl NAD-stock (10.7 mM, stored at −20° C., supplier Roche) to 1888.7 μl assay buffer (60 mM Tris/HCl, pH 7.4; 0.9 mM DTT; 6 mM MgCl2). The TANK-2 enzyme was produced as described in EP1238063. 60 μl of assay buffer, together with 1 μl of compound in DMSO, 20 μl of [^3H]-NAD^+/NAD and 20 μl of TANK-2 enzyme (final concentration 6 μg/ml) was added per well into a 96-well Ni-coated flash plate (Perkin Elmer). After incubation of the mixture for 120 min. at room temperature, the reaction was terminated by adding 60 μl of stopsolution (42.6 mg NAD in 6 ml H2O). […] Values were expressed as counts per minute (cpm). […] For each sample, the amount of cpm was expressed as a percentage of the mean cpm value of the controls. […] Herein the effects of test compounds are expressed as pIC50 (the negative log value of the IC50-value). […]

Which “in vitro SPA assay PARP-1 pIC50” value (PARP-1 enzyme [1]) does the source give for `O=c1[nH]c(=O)n(CCCN2CCC(n3c(=O)[nH]c4cc(Cl)ccc43)CC2)c2ccccc12` here?
The value was 6.848.

And the “in vitro filter assay PARP-1 pIC50” value (PARP-1 enzyme [2])?
The value was 5.792.

And the “in vitro SPA assay TANK-2 pIC50” value (TANK-2 enzyme)?
Its value is 5.247.
